ARNT-TACC3 inh = disruptors of human ARNT/TACC3 interaction | inhibition, % at 9.99 µM | Q9Y6A5 | AlphaScreen His-ARNT PAS-B/GST-TACC3 binding, luminescence; TACC3 fragment carries E629A point mutation | actives 0.66% (n = 390,000);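 active means mean inhibition of replicates at least 50% and at least half of replicates each reaching 50%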;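 further: 0% = complete ARNT plus TACC3 wells and 100% = ARNT alone without TACC3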
PglD DTNB = blocks C. jejuni PglD acetyltransferase activity; actives 0.098% (n = 360,000); inhibition, % at 12.5 µM; purified PglD enzyme, DTNB colorimetric CoA detection; in the data active means inhibition above about 16%, passing the limit was not always enough
PDI inh = blocks human protein disulfide isomerase activity. P07237. PDI insulin aggregation turbidity, A650, 90 min. inhibition, % at 10 µM. actives 0.052% (n = 350,000);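 active means mean inhibition across replicates of 30% or more, whatever share of single replicates reach that level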
Yeast UUG start = yeast start codon fidelity modulation; AID 602363; activity score, % at 18.7 µM; S. cerevisiae UUG-firefly luciferase reporter, luminescence/redox ratio; 0.13% of 350,000 active;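 active means replicate mean at a twofold rise or more, about +100% in these data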;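 further: firefly luciferase made from a UUG start codon reports start codon fidelity; reporter light over untreated wells divided by growth signal over untreated wells; some hits fall short of that in this replicate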
FGF22 binding = shifts melting point of recombinant human FGF22. Q9HCT0. recombinant FGF22 thermal shift, SYPRO orange fluorescence; percent of sucrose octasulfate shift, DMSO zero. activity (Tm shift, normalised), % at 9.99 µM. actives 1.5% (n = 340,000);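 active means mean Tm shift, scaled 0 neutral to 100 positive control, at about 1.3% or above, every replicate too, limit read from the data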
ERp5 inh = blocks human ERp5 reductase activity on insulin | ERp5 insulin aggregation, absorbance 650 nm, 90 min | inhibition, % at 9.99 µM | actives 0.05% (n = 350,000);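 active means mean replicate inhibition above about 25%, with every replicate also reaching it, limit read from the data, passing the limit was not always enough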
PglD inh SP = blocks Campylobacter jejuni PglD acetyltransferase activity; shares compounds with PglD DTNB; Purified C. jejuni PglD, DTNB absorbance 412 nm; inhibition, % at 20 µM; 320 tested, under 10 active; AID 743156;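 active means mean inhibition across replicates of at least 20% with every single replicate also at 20% or more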;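 further: initial rate of CoA release by acetyl transfer from AcCoA to the UDP-4-amino sugar; 0% = median of neutral control wells and 100% = median of positive control wells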
Starred values were filed as active, the others as inactive. Compounds with a hit are over-represented: about 1.9% of the library has one in this group of screens.

`Cc1cc(C)cc(N(C(C)C(=O)N2CCCC2)S(C)(=O)=O)c1` (centres undefined) gave ARNT-TACC3 inh -6, PglD DTNB 75*, PDI inh 2, Yeast UUG start -8, FGF22 binding 0, ERp5 inh 3 and PglD inh SP -9.
`CN(C)C(=O)[C@@H]1[C@@H](CO)[C@@H]2Cn3c(ccc(-c4ccncc4)c3=O)[C@@H]2N1Cc1ccccc1` gave ARNT-TACC3 inh -5, PglD DTNB -2, FGF22 binding 0 and ERp5 inh 0.
`O=C(C[C@@H]1CC[C@H](NC(=O)CC2CC2)[C@@H](CO)O1)NCc1ccc(-c2ccccc2)cc1` gave ARNT-TACC3 inh -6, PglD DTNB 5, Yeast UUG start -12, FGF22 binding 0 and ERp5 inh 4.
Screening C=CCc1c(OC)ccc2c1c(S(=O)(=O)c1ccc(C)cc1)cn2COC returned ARNT-TACC3 inh -10, PglD DTNB 22*, PDI inh -1, Yeast UUG start 9, FGF22 binding 0, ERp5 inh 7 and PglD inh SP 1.
O=S(=O)(c1ccc(F)cc1)N1CCCC(CO)C1 (centres undefined) was read as ARNT-TACC3 inh 3, PglD DTNB 33*, PDI inh -3, Yeast UUG start -1 and PglD inh SP -2.
`COc1cc(CC(=O)NCc2ccco2)cc(OC)c1OC` gave ARNT-TACC3 inh -5, PglD DTNB 22*, PDI inh 1, Yeast UUG start -6 and PglD inh SP -1.
Screening O=C(C[C@@H]1CC[C@@H](NC(=O)c2ccncc2)[C@@H](CO)O1)Nc1ccc(-c2ccccc2)cc1 returned ERp5 inh 1.
Screening Cc1c(C(=O)O)oc2c3c(ccc12)OCCO3 returned ARNT-TACC3 inh 1, PglD DTNB 24*, PDI inh -3, Yeast UUG start -13 and PglD inh SP -2.
Screening COc1ccc(/C=C/C(=O)NCC(=O)N/N=C(/CCC(=O)O)c2ccccc2)cc1 returned ARNT-TACC3 inh -11, PglD DTNB 5, PDI inh 1, Yeast UUG start -12, FGF22 binding 0 and ERp5 inh 4.
For O=C(O)CC/C(=N\NC(=O)CNC(=O)/C=C/c1ccccc1)c1ccccc1 the results were ARNT-TACC3 inh -5, PglD DTNB 26*, PDI inh 0, Yeast UUG start -20, FGF22 binding 0, ERp5 inh -1 and PglD inh SP 2.

Overlap with the part before: 3 entries, then new ones.
Screening Cc1c(C(=O)O)oc2c3c(ccc12)OCCO3 returned ARNT-TACC3 inh 1, PglD DTNB 24*, PDI inh -3, Yeast UUG start -13 and PglD inh SP -2.
Screening COc1ccc(/C=C/C(=O)NCC(=O)N/N=C(/CCC(=O)O)c2ccccc2)cc1 returned ARNT-TACC3 inh -11, PglD DTNB 5, PDI inh 1, Yeast UUG start -12, FGF22 binding 0 and ERp5 inh 4.
For O=C(O)CC/C(=N\NC(=O)CNC(=O)/C=C/c1ccccc1)c1ccccc1 the results were ARNT-TACC3 inh -5, PglD DTNB 26*, PDI inh 0, Yeast UUG start -20, FGF22 binding 0, ERp5 inh -1 and PglD inh SP 2.
For CCN(CC)CC(=O)Nc1sc(C)cc1C(=O)c1ccccc1 the results were ARNT-TACC3 inh 8, PglD DTNB -4, PDI inh -6, Yeast UUG start -7, FGF22 binding 0 and ERp5 inh -1.
`CCN(CC)CC(=O)Nc1sc(C)cc1C(=O)c1ccc(C)cc1` gave ARNT-TACC3 inh -4, PglD DTNB 22*, PDI inh 6, Yeast UUG start -5, FGF22 binding 0, ERp5 inh 0 and PglD inh SP 11.
`CC(=O)c1cccc(NC(=O)NCc2cccnc2)c1` gave ARNT-TACC3 inh 4, PglD DTNB 22*, PDI inh 11, Yeast UUG start -2, FGF22 binding 0, ERp5 inh -2 and PglD inh SP 2.
`C=CCNC(=O)[C@@H]1[C@H]2C(=O)O[C@H](c3ccccc3)[C@H](c3ccccc3)N2[C@H](c2ccccc2OCCO)[C@@]12C(=O)N(C(=O)OCCOC)c1ccc(C#CCC(C(=O)OC)C(=O)OC)cc12` gave ARNT-TACC3 inh 21, PglD DTNB 4, Yeast UUG start -14, FGF22 binding 0 and ERp5 inh 1.
`Cc1cc(NC(=O)C2CCN(S(=O)(=O)c3cnc[nH]3)CC2)ccc1Br` gave ARNT-TACC3 inh -2, PglD DTNB 28*, PDI inh 5, Yeast UUG start -20 and PglD inh SP 4.
For Cc1ccc(NC(=O)C2CCN(S(=O)(=O)c3cnc[nH]3)CC2)cc1C the results were ARNT-TACC3 inh -3, PglD DTNB -4, PDI inh 12 and Yeast UUG start -14.
For Cc1cccc(C(=O)NCCNC(=O)c2ccco2)c1 the results were ARNT-TACC3 inh -2, PglD DTNB 20*, PDI inh -1, Yeast UUG start 2, FGF22 binding 0, ERp5 inh -1 and PglD inh SP 10.
`O=C(CCc1nc2ccccc2s1)N1CCN(S(=O)(=O)c2cccs2)CC1` gave ARNT-TACC3 inh 1, PglD DTNB -2, PDI inh 0 and Yeast UUG start -7.
Screening O=S(=O)(c1cccs1)N1CCN(Cc2nc3ccccc3s2)CC1 returned ARNT-TACC3 inh -3, PglD DTNB 24*, PDI inh 3, Yeast UUG start -9 and PglD inh SP -1.
Oc1ccc(-c2cnc(-c3ccc(O)cc3)nc2)cc1 was read as ARNT-TACC3 inh -6, PglD DTNB -4, PDI inh -10, Yeast UUG start -74, FGF22 binding 0 and ERp5 inh -2.
`Nc1ccc(-c2cnc(-c3ccc(N)cc3)nc2)cc1` gave ARNT-TACC3 inh -7, PglD DTNB 31*, PDI inh 4, Yeast UUG start -33 and PglD inh SP 3.
CC1=CC(=NOC(=O)/C=C/c2ccccc2)C=C(C)C1=O was read as ARNT-TACC3 inh 0, PglD DTNB 28*, PDI inh 3, Yeast UUG start -10 and PglD inh SP -1.
Screening O=C(NNS(=O)(=O)c1ccc(Cl)cc1)c1sccc1-n1cccc1 returned ARNT-TACC3 inh 1, PglD DTNB 25*, PDI inh -5, Yeast UUG start 21 and PglD inh SP 6.
O=C(NNS(=O)(=O)c1ccccc1)c1sccc1-n1cccc1 was read as ARNT-TACC3 inh -3, PglD DTNB 3, PDI inh 3 and Yeast UUG start -12.
`Cc1noc(C)c1S(=O)(=O)N(C)C[C@@H]1OCc2ccccc2-c2c(n(C)c3ccccc23)C(=O)N([C@@H](C)CO)C[C@@H]1C` gave ARNT-TACC3 inh 11, PglD DTNB -1, FGF22 binding 0 and ERp5 inh -4.
Screening Oc1cc2c(cc1CN1CCN(c3cccc(C(F)(F)F)c3)CC1)CCC2 returned ARNT-TACC3 inh -2, PglD DTNB 55*, PDI inh 3, Yeast UUG start -16 and PglD inh SP 1.
For COc1ccc(N2CCN(Cc3cc4c(cc3O)CCC4)CC2)cc1 the results were ARNT-TACC3 inh 12, PglD DTNB 2, PDI inh 11 and Yeast UUG start -10.
For COc1ccc2c3c([nH]c2c1)[C@@H](CO)N(C(=O)C1CC1)CC31CN(S(C)(=O)=O)C1 the results were FGF22 binding 0 and ERp5 inh 6.

Source: PubChem BioAssay
